G9a block: inhibitors of human histone lysine methyltransferase G9a; G9a H3K9 monomethylation, AlphaScreen, 2 h; Potency, µM (highest dose often 102 µM), without a hit: at the top dose activity, negative = inhibition, hits mostly inhibitors; hit rate 8.8% among 350,000; AID 504332; note: potency is the fitted concentration of half-maximal effect; % is set by controls: 0 for no effect and ±100 for the full control effect; nearly all actives have a fitted effect of over 75% in size
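Chemiluminescent proximity detection of H3K9 monomethylation, read after 10 min bead incubation in the dark. Reaction: 20 nM G9a, 500 nM biotin-H3K9 peptide, 20 uM SAM cofactor, 2 h, room temperature, following 15 min enzyme-compound preincubation.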
miR-21 reporter: miR-21 reporter, rising signal. 340,000 tested, under 10 active. Potency, µM (highest dose often 38.3 µM), for the others: at the highest dose reporter change, positive = more light. HeLa miR-21 FLuc reporter, luciferase, 48 h. AID 2288; active = well fitted rising curve with a large enough effect; inconclusive = small, poorly fitted or top-dose-only effect; inactive = no such curve, though single readings can be large or run the other way;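 further: % of control where 0% means no effect; miR-21 action dims this reporter so a rising signal means less miR-21 action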
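Compounds were titrated across several concentrations (up to approximately 40 uM) and incubated 48 hours with HeLa miR-21-FLuc reporter cells (miR-21 target sequence downstream of FLuc, endogenous miR-21). Readout was firefly luciferase luminescence after lytic detection reagent.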
Lamin A splicing: changes lamin A minigene splicing in HeLa cells; HeLa LMNA splicing GFP/RFP minigene ratio, 48 h; Potency, µM (series often up to 46.1 µM), inactives show at the top dose ratio change, negative = inhibition, most hits filed as inhibitors; hit rate 0.01% among 200,000; AID 1487; active = well fitted inhibition curve with a large enough effect in the signal ratio, with a control signal flat, not every such curve was filed as active; inconclusive = small, poorly fitted or top-dose-only effect, or effect the other way, or a change in a side signal; the % refers to the signal ratio; note: potency is the fitted concentration of half-maximal effect; % is set by controls: 0 for no effect and ±100 for the full control effect
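S3 HeLa stable clones carrying a lamin A-EGFP splicing minigene plus DsRed2 were seeded at 600 cells/well in Opti-MEM with 2% FBS, pin-dosed and incubated 48 h at 37°C. Acumen cytometry (488 nm) gave the GFP/RFP total-intensity ratio.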
Sfp inh: qHTS Assay for Inhibitors of Bacillus subtilis Sfp phosphopantetheinyl transferase (PPTase) | 4'-phosphopantetheinyl transferase ffp (Bacillus subtilis), Q9F4F7 | Biochemical Sfp PPTase activity, qHTS | Potency, µM, for inactives: max response, negative = inhibition, hits mostly inhibitors | 3.5% of 310,000 active | AID 1490, 2009; active = well fitted inhibition curve with a large enough effect; inconclusive = small, poorly fitted or top-dose-only effect, or another doubt; inactive = no such curve, though single readings can be large or run the other way;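 also: the enzyme is Sfp with the accession as filed and its product quenches rhodamine fluorescence; potency is read from the fitted curve at half-maximal effect; 0% = enzyme reaction without inhibitor and -100% = no enzyme wells; top concentration of the series not given in the record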
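With Hepes-Na pH 7.6 buffer containing 10 mM MgCl2, Sfp (15 nM) modified BHQ-2-YbbR (12.5 uM) using rhodamine-CoA (5 uM). Two reads 30 minutes apart at 525/598 nm yielded each well's rate.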
JMJD2E inh: inhibitors of human JMJD2E histone demethylase | Potency, µM (titrated, usually from 57.1 µM), without a hit: at the highest dose activity change, negative = inhibition, usual class: inhibitors | hit rate 1.6% among 230,000 | JMJD2E catalytic domain, FDH-coupled NADH fluorescence (FDH is formaldehyde dehydrogenase) | AID 2147; active = well fitted inhibition curve with a large enough effect, not every such curve was filed as active; inconclusive = small, poorly fitted or top-dose-only effect, or another doubt; inactive = no such curve, though single readings can be large or run the other way;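 note: potency is the fitted concentration of half-maximal effect; 0% = wells with enzyme and -100% = buffer wells without enzyme; nearly all actives have a fitted effect of over 50% in size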
ALDH1A1 block: blocks purified human ALDH1A1 activity; P00352; Purified ALDH1A1, NADH fluorescence, propionaldehyde substrate; Potency, µM (titrated, usually from 75.3 µM), for the others: at the top dose activity, negative = inhibition, usual class: inhibitors; hit rate 7.3% among 220,000; AID 1030; active = well fitted inhibition curve with a large enough effect, not every such curve was filed as active; inconclusive = small, poorly fitted or top-dose-only effect, or another doubt; inactive = no such curve, though single readings can be large or run the other way;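 note: potency is the fitted concentration of half-maximal effect; plate controls were no enzyme wells and a reference inhibitor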
* hit, by the source's call; [ ] = another dose, or the depositor's remark. Sampled rows, rich in hits. Any-hit rate of the full collection: about 13%. Unless noted, calls come from the whole dose curve; as a rule, active = well fitted curve in the direction sought with a large enough effect; inconclusive = small, poorly fitted or top-dose-only effect, or another doubt; inactive = no such curve, though single readings can be large; an effect the other way counts as inactive or inconclusive.

Results for Cc1ccc(-c2ccc([C@H]3[C@@H]4C=CCC[C@@]4(C)C(=O)N3Cc3ccccc3)c(F)c2)cc1 ?
G9a block: 2%[12.7 µM]; miR-21 reporter: 2%; Sfp inh: inconclusive; JMJD2E inh: 4%

How did Cc1ccc(F)c(C2C3C=CCCC3(C)C(=O)N2Cc2ccccc2)c1 (stereo not drawn) do in these assays?
Sfp inh: 28µM*

Results for COc1ccc(-c2ccc([C@H]3[C@@H]4C=CCC[C@@]4(C)C(=O)N3Cc3ccccc3)c(F)c2)cc1 ?
G9a block: -11%[12.7 µM]; miR-21 reporter: 29%; Sfp inh: 32µM*; JMJD2E inh: inconclusive

What do the screens show for `COc1cc(C(C(=O)NC2CCCCC2)N(Cc2ccco2)C(=O)c2cnccn2)cc(OC)c1OC` (stereo not drawn)?
miR-21 reporter: 3%; Lamin A splicing: inconclusive; Sfp inh: 10%; JMJD2E inh: -8%; ALDH1A1 block: -2%

How did COc1ccc(C(=O)N(Cc2ccco2)C(C(=O)NC2CCCC2)c2ccc(O)cc2)cc1OC (stereo not drawn) do in these assays?
G9a block: -23%[12.7 µM]; miR-21 reporter: 2%; Lamin A splicing: -25%; Sfp inh: -5%; JMJD2E inh: 0%; ALDH1A1 block: 22µM*

How did O=C(CCSc1ccccn1)Nc1ccc(Br)cc1 do in these assays?
G9a block: 11%[59 µM]; miR-21 reporter: -59%; Lamin A splicing: 0%; Sfp inh: -11%; JMJD2E inh: -3%; ALDH1A1 block: -9%

How did O=C(O)CCSc1ccccn1 do in these assays?
G9a block: 14µM*; miR-21 reporter: -9%; Sfp inh: 50µM*; JMJD2E inh: -4%; ALDH1A1 block: inconclusive

How did O=C(CCSc1ccccn1)c1ccccc1 do in these assays?
G9a block: inconclusive; miR-21 reporter: -3%; Sfp inh: 79µM*; JMJD2E inh: -7%; ALDH1A1 block: 0.25µM*

What do the screens show for `COc1ccc(C(=O)NCc2nnnn2-c2ccc(C)c(C)c2)cc1`?
G9a block: 10%[59 µM]; miR-21 reporter: 0%; Lamin A splicing: -6%[46 µM]

Results for CCn1c(NC(C)=O)nc2ccccc21 ?
G9a block: 10µM*; miR-21 reporter: -8%; Lamin A splicing: 7%; Sfp inh: 6%; JMJD2E inh: 1%; ALDH1A1 block: -8%

How did CCCn1c(S(=O)(=O)O)nc2ccccc21 do in these assays?
G9a block: 50µM*; miR-21 reporter: -2%; Sfp inh: -13%; JMJD2E inh: -16%

What do the screens show for `Nc1nc2ccccc2n1CCOc1ccc(Br)cc1`?
miR-21 reporter: 1%; Sfp inh: -3%

How did CCCn1c(N2CCN(C(=O)N3CCCCC3)CC2)nc2ccccc21 do in these assays?
G9a block: 50µM*; miR-21 reporter: -5%; Lamin A splicing: 1%; Sfp inh: -1%; JMJD2E inh: -5%; ALDH1A1 block: inconclusive

How did Cc1cccc(OCCn2c(S(=O)(=O)O)nc3ccccc32)c1 do in these assays?
miR-21 reporter: -7%; Lamin A splicing: 0%; Sfp inh: -13%; JMJD2E inh: -4%; ALDH1A1 block: -28%

Results for S=C(Nc1ccccc1)Nc1nc2ccccc2n1CCOc1ccc(Br)cc1 ?
G9a block: inconclusive; miR-21 reporter: -9%; Lamin A splicing: inconclusive; Sfp inh: -28%; JMJD2E inh: 2%; ALDH1A1 block: 9.5µM*

How did CCOC(=O)N1CCN(C2CCCN(C(=O)c3cccc(Cl)c3)C2)CC1 (stereo not drawn) do in these assays?
G9a block: 7%; miR-21 reporter: -1%; Sfp inh: 16%

How did CC(C)NC(=NCc1ccc(Cl)cc1Cl)Nc1ccccc1 do in these assays?
G9a block: -4%; miR-21 reporter: 20%; Sfp inh: 2%

What do the screens show for `CCCn1c(/C=C/c2cc[n+](C)cc2)nc2ccccc21`?
G9a block: 40µM*; miR-21 reporter: 3%; Sfp inh: 7%

Results for CC(C)(C)N1CC(c2nc3ccccc3n2CCOc2ccccc2)CC1=O (stereo not drawn) ?
G9a block: -2%[59 µM]; miR-21 reporter: -9%; Lamin A splicing: 4%; Sfp inh: 16%; JMJD2E inh: 5%; ALDH1A1 block: 3.2µM*

Results for CCC(C)n1c(S(=O)(=O)O)nc2ccccc21 (stereo not drawn) ?
G9a block: 79µM*; miR-21 reporter: -2%; Lamin A splicing: 4%; Sfp inh: -9%; JMJD2E inh: -1%; ALDH1A1 block: 3%

Results for CCOc1ccc(N2CC(c3nc4ccccc4n3CCOc3ccccc3)CC2=O)cc1 (stereo not drawn) ?
G9a block: -29%[59 µM]; miR-21 reporter: -2%

What do the screens show for `O=S(=O)(O)c1nc2ccccc2n1CCOc1ccccc1`?
G9a block: 50µM*; miR-21 reporter: -9%; Lamin A splicing: -1%; Sfp inh: 21%; JMJD2E inh: -1%; ALDH1A1 block: -9%

How did CC1CC(OC(=O)CN2CCCCC2)CC(C)(C)C1 (stereo not drawn) do in these assays?
G9a block: -1%; miR-21 reporter: 3%; Sfp inh: 17%; JMJD2E inh: -6%

What do the screens show for `CC(C)CCNC(=O)CN1C(=O)c2cccnc2Oc2ccccc21`?
G9a block: 8%[59 µM]; miR-21 reporter: -8%

How did Cc1ccc([N+](=O)[O-])cc1Nc1nc(N2CCCC2)nc(N2CCCC2)n1 do in these assays?
G9a block: 0%[0.501 µM]; miR-21 reporter: 0%; Sfp inh: -15%

How did CC1CC(C)CN(C(=O)/C=C/c2ccc([N+](=O)[O-])s2)C1 (stereo not drawn) do in these assays?
G9a block: inconclusive; miR-21 reporter: inconclusive; Sfp inh: inconclusive; JMJD2E inh: -3%; ALDH1A1 block: 2.8µM*

Results for O=C(/C=C/c1ccc([N+](=O)[O-])s1)N1CCCC1 ?
G9a block: -2%; miR-21 reporter: inconclusive; Sfp inh: -15%; JMJD2E inh: inconclusive; ALDH1A1 block: inconclusive

How did CC1CN(C(=O)/C=C/c2ccc([N+](=O)[O-])s2)CC(C)O1 (stereo not drawn) do in these assays?
G9a block: 3%; miR-21 reporter: inconclusive; Lamin A splicing: inconclusive; Sfp inh: 15%; JMJD2E inh: 0%; ALDH1A1 block: inconclusive

How did O=C(/C=C/c1ccc([N+](=O)[O-])s1)N1CCCCC1 do in these assays?
G9a block: -6%; miR-21 reporter: 29%; Lamin A splicing: 12%[46 µM]; Sfp inh: 8%; JMJD2E inh: -3%; ALDH1A1 block: 28µM*

A section of the results above, as a working copy:
Results for CCOc1ccc(N2CC(c3nc4ccccc4n3CCOc3ccccc3)CC2=O)cc1 (stereo not drawn) ?
G9a block: -29%[59 µM]; miR-21 reporter: -2%

What do the screens show for `O=S(=O)(O)c1nc2ccccc2n1CCOc1ccccc1`?
G9a block: 50µM*; miR-21 reporter: -9%; Lamin A splicing: -1%; Sfp inh: 21%; JMJD2E inh: -1%; ALDH1A1 block: -9%

How did CC1CC(OC(=O)CN2CCCCC2)CC(C)(C)C1 (stereo not drawn) do in these assays?
G9a block: -1%; miR-21 reporter: 3%; Sfp inh: 17%; JMJD2E inh: -6%
